## Measured properties of organic chemicals

Values as listed in the OPERA 2.9 repository of K. Mansouri.

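The numbers are reported measurements, compiled and curated for the OPERA QSAR suite. A listed value is a point estimate from one report or more. How each value was measured is not recorded, so precision varies. A value may pool stereoisomers or salt forms, and the file does not say which form was measured. Unmarked limits or estimates from the upstream databases cannot be ruled out.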

The melting point is given in degrees Celsius.
Boiling points are in °C, nominally at 760 mmHg.
The octanol-water partition coefficient is given as log10; larger values mean a more lipophilic compound.
Solubility in water is on a log10 molar scale (set defined at 25 °C).
Vapor pressure is log10 of mmHg; the set covers 15 to 30 °C, mostly 20 to 25 °C.
Henry's law constant (air-water partitioning) is log10 of atm·m3/mol, nominally at 25 °C.
fu is the fraction unbound in human plasma, from 0 to 1.
Clint is human hepatic intrinsic clearance in µL/min per million cells; 0 means that no clearance was seen.
Cells with "–" have no entry in this list.

COc1cnc(OC)n2nc(NS(=O)(=O)c3c(OCC(F)F)cccc3C(F)(F)F)nc12 [Penoxsulam] is reported with log Kow -0.354 and water solubility -3.07 (log10 mol/L) and fraction unbound 0.01002 and hepatic Clint 0 µL/min/10^6 cells.
O=C(N[C@H]1CN2CCC1CC2)c1ccc2c(c1)OCCO2 is reported with fraction unbound 1 and hepatic Clint 3.688 µL/min/10^6 cells.
CCc1nn(C)c(C(=O)NCc2ccc(Oc3ccc(C)cc3)cc2)c1Cl [Tolfenpyrad] is reported with water solubility -6.64 (log10 mol/L) and vapor pressure -8.426 (log10 mmHg).
CC(C)(C)CC(C)(C)OO [Hydroperoxide, 1,1,3,3-tetramethylbutyl] is reported with log Kow 2.9 and water solubility -1.718 (log10 mol/L) and vapor pressure -0.949 (log10 mmHg).
OCC(O)CCl (stereo not drawn) [3-Chloro-1,2-propanediol] is reported with log Kow 0.502 and log H -7.215 (log10 atm·m3/mol).
CCCCOC(=O)CCC(C)(OOC(C)(C)C)OOC(C)(C)C [Butyl 4,4-di(tert-butylperoxy)valerate] is reported with mp -13.7 °C and vapor pressure -3.401 (log10 mmHg).
CCN(CC)CCN1C(=O)CN=C(c2ccccc2F)c2cc(Cl)ccc21 [Flurazepam] is reported with log Kow 3.8 and fraction unbound 0.03.
Clc1ccc(-c2c(Cl)ccc(Cl)c2Cl)c(Cl)c1 [2,2',3,4',6-Pentachlorobiphenyl] is reported with log Kow 6.13 and vapor pressure -3.128 (log10 mmHg).
NCCc1ccc(S(N)(=O)=O)cc1 [4-(2-Aminoethyl)benzenesulfonamide] is reported with log Kow -2.75 and vapor pressure -7.72 (log10 mmHg).
C1=Cc2cccc3cccc1c23 [Acenaphthylene] is reported with fraction unbound 0.01116 and hepatic Clint 12.38 µL/min/10^6 cells.
CC(C)(C)OOC(=O)c1ccccc1 [tert-Butyl perbenzoate] is reported with bp 112.1 °C and log Kow 3 and water solubility -2.231 (log10 mol/L).
ClCCCCCCCCCCCl [Decane, 1,10-dichloro-] is reported with log Kow 4.51 and vapor pressure -1.837 (log10 mmHg).
CN(C)c1nc(=O)n(C2CCCCC2)c(=O)n1C [Hexazinone] is reported with fraction unbound 0.6125 and hepatic Clint 6.36 µL/min/10^6 cells.
Brc1ccc(Oc2ccc(Br)cc2Br)c(Br)c1 [2,2',4,4'-Tetrabromodiphenyl ether] is reported with mp 83.05 °C and water solubility -7.513 (log10 mol/L).
C[C@]12C[C@@H](O)[C@H]3[C@@H](CCC4=CC(=O)CC[C@@H]43)[C@@H]1CCC2=O [11alpha-Hydroxy-estr-4-ene-3,17-dione] is reported with mp 216.4 °C and log Kow 0.967 and water solubility -2.561 (log10 mol/L).
Clc1cc(Cl)c2c(c1)Oc1c(Cl)cc(Cl)cc1O2 is reported with mp 219 °C and vapor pressure -8.28 (log10 mmHg).
CC#Cc1cc(C)nc(Nc2ccccc2)n1 [Mepanipyrim] is reported with log H -7.783 (log10 atm·m3/mol) and fraction unbound 0.03419.
Clc1ccc2oc3ccc(Cl)cc3c2c1 [2,8-Dichlorodibenzofuran] is reported with mp 184 °C and vapor pressure -5.533 (log10 mmHg).

2 of these entries, quoted again:

| SMILES | name | mp (°C) | bp (°C) | log Kow | water solubility (log10 mol/L) | vapor pressure (log10 mmHg) | log H (log10 atm·m3/mol) | fraction unbound | hepatic Clint (µL/min/10^6 cells) |
|---|---|---|---|---|---|---|---|---|---|
| Clc1cc(Cl)c2c(c1)Oc1c(Cl)cc(Cl)cc1O2 | – | 219 | – | – | – | -8.28 | – | – | – |
| Clc1ccc(-c2c(Cl)ccc(Cl)c2Cl)c(Cl)c1 | 2,2',3,4',6-Pentachlorobiphenyl | – | – | 6.13 | – | -3.128 | – | – | – |